# According to PubChem BioAssay AID588753 (Vanderbilt Specialized Chemistry Center, 2011):
# The list shows a part of the results, in another mix than the full data. Activity calls are given as the source filed them. How the calls were made is not given here.
# Experiment: PubChem AID 588753
# Settings: Ricerca radioligand binding panel, % inhibition, at 10 µM, stronger effect = higher value
structure (smiles),measurement,setting,value
CC1(NC(=O)c2ccc(C#Cc3cccc(F)c3)cn2)COC1,inhibition,L-type Ca channel DHP site,14%
same,inhibition,NMDA phencyclidine site,2%
same,inhibition,adenosine A2a binding,1%
same,inhibition,adrenergic alpha1A binding,-13%
same,inhibition,,inactive: 11%
same,inhibition,dopamine transporter binding,31%
same,inhibition,hERG binding,18%
same,inhibition,leukotriene CysLT1 binding,8%
same,inhibition,norepinephrine transporter binding,20%
same,inhibition,purinergic P2XY binding,14%
same,inhibition,serotonin 5-HT2B binding,21%
same,inhibition,serotonin transporter binding,-3%
same,inhibition,sigma 1 binding,6%
